Assays:
Pan-02 = experiment: Schedule dependence in Pan-02, Tables 7(A) and 7(B); assay type: in vivo, mice
Experimental: Unmodified IL-2 and PEG (7,000 MW) modified IL-2 (having an apparent molecular weight of 160 kD) were administered to mice who were transplanted with one of three tumor types; Meth A; B 16 melanoma; and Pan-02. The details are more specifically set out in Zimmerman et al., 1989, Cancer Research, 49:6521-6528 which is hereby incorporated by reference in its entirety.
Although the toxicity of PEG-IL-2 was reduced at these dose levels compared to those used in the B16 model, there was a schedule-dependent increase in toxicity as the interval between doses was decreased. No deaths were recorded on the Q7D×2 schedule, 1/30 mice died on Q4D×3, 5/30 died on Q3D×4, and 10/15 died on the 3 doses of the Q2D×5 schedule (Table 7(B)). An additional single study has shown that PEG-IL-2 at 24 mg/kg on the Q7D×2 schedule also was not lethal.
^a IL2 treatment started 7 days following s.c. tumor implant, i.v., Q
× 9. Five mice/group/experiment.
^b T C calculated as in Table 2.
^c % ILS is the percent increase in lifespan: calculated as the media
day of death of the treated group/median day of death of the controls,
^d Treatmentcaused deaths.
^f PEGIL-2 treatment started 7 days postimplant, i.v., on the
from calculations of survival. Days posttumor inoculation.

Meth A tumor [1] = experiment: Meth A tumor mice, one bolus dose of IL-2 or PEG-IL-2 (peak height and shape of clearance curve), Table 1; assay type: in vivo
Experimental: Unmodified IL-2 and PEG modified IL-2 were administered to mice who were transplanted with a Meth A tumor. The technical details for the materials and methods are similar to those specifically set out in Zimmerman et al., 1989, Cancer Research, 49:6521-6528 which is hereby incorporated by reference in its entirety.
The purpose of this experiment was to define the peak height and shape of the IL-2 blood concentration curve. Unmodified IL-2 (IL-2) and PEG modified IL-2 (having apparent molecular weights of 95 kD and 160 kD) were given to the mice in one bolus dose. […] Consequently, one can determine the effect of dose and duration by administering IL-2 and PEG-IL-2 molecules that will remain in the body for varying lengths of time.
PEG modified IL-2 (160 kD apparent molecular weight) was also administered to the mice. As shown in Table 5(B), four different treatment schedules were used: Q7D×2, Q4D×3, Q3D×4, and Q2D×5. The 3 total dose levels of 50, 25 or 12.5 mg/kg PEG-IL-2 were based on preliminary single dose studies. A single i.v. dose of PEG-IL-2 at 50, 25 or 12.5 mg/kg was lethal in 5/5, 2/5, or 0/5 Meth A bearing mice, respectively. When these same total doses were divided and delivered by the various schedules, the toxicity of the treatments was schedule dependent. […] The other combinations of dose and schedule were not lethal, with the exception of the 25 mg/kg dose on the Q2D×5 schedule (Table 5(B)). As discussed below, this dependence on the frequency of administration to produce the lethality is related to the minimum plasma concentration of L-2 attained between doses (i.e., the trough).

Meth A tumor [2] = experiment: Meth A: effect of IL-2 peak serum concentration, PEG-IL-2 given concurrently with IL-2, Table 2; assay type: in vivo, mice
Experimental: Another experiment was performed to determine the effect of IL-2 peak serum concentration on therapeutic index. 160 kD PEG-IL-2 was administered concurrently with IL-2 at the doses indicated below in Table 2.
* PEGIL-2: 25 mg/kg (75 mg/m^2) or 12.5 mg/kg (37.5 mg/m^2) total
* Proleukin: 12.5 mg/kg (37.5 mg/m^2) or 7.5 mg/kg (22.5 mg/m^2)
given simultaneously with PEGIL-2.

[3] = PEG 12.5 mg/kg total, i.v., Q7D×2
[4] = PEG 25 mg/kg total, i.v., Q7D×2

IL-2: Unmodified interleukin-2, recombinant or natural human; lymphokine, T cell growth factor
% ILS (Pan-02; 18 mg/kg total, i.v. QD×9): 127% | Number deaths/total treated (Pan-02; 18 mg/kg total, i.v. QD×9): 0/5 | T - C (Pan-02; 18 mg/kg total, i.v. QD×9): 0.8 days | % ILS (Pan-02; 45 mg/kg total, i.v. QD×9): 143% | Number deaths/total treated (Pan-02; 45 mg/kg total, i.v. QD×9): 0/10 | T - C (Pan-02; 45 mg/kg total, i.v. QD×9): 0.5 days | % ILS (Pan-02; 112.5 mg/kg total, i.v. QD×9): < 100% | Number deaths/total treated (Pan-02; 112.5 mg/kg total, i.v. QD×9): 2/5 | T - C (Pan-02; 112.5 mg/kg total, i.v. QD×9): 0.4 days | anti-tumor efficacy as a single agent (Pan-02; even at toxic levels): limited anti-tumor efficacy | % TGI (Meth A tumor [1]; 22.5 mg/kg single bolus): 21% | Cures (Meth A tumor [1]; 22.5 mg/kg single bolus): 0/5 | % TGI (Meth A tumor [1]; 75 mg/kg single bolus): 56% | Cures (Meth A tumor [1]; 75 mg/kg single bolus): 0/5 | toxicity (Meth A tumor [1]; doses of up to 75 mg/kg): not toxic | contribution of peak height alone to toxicity (Meth A tumor [1]; mouse, in vivo): contributes little to toxicity | % TGI (Meth A tumor [2]; 12.5 mg/kg IL-2 alone): 54.2% | Cures (Meth A tumor [2]; 12.5 mg/kg IL-2 alone): 0/10 | Deaths (Meth A tumor [2]; 12.5 mg/kg IL-2 alone): 0/10 | Δ Body Weight (Meth A tumor [2]; 12.5 mg/kg IL-2 alone): 1.08

160 kD PEG IL-2: PEG (7,000 MW) modified IL-2 having an apparent molecular weight of 160 kD
% ILS (Pan-02; 2.5 mg/kg total, i.v. Q2D×5): 100% | Day of death, Median (Pan-02; 2.5 mg/kg total, i.v. Q2D×5): 15.0 Days post-tumor inoculation | Day of death, Range (Pan-02; 2.5 mg/kg total, i.v. Q2D×5): 19-35 Days post-tumor inoculation | T - C (Pan-02; 2.5 mg/kg total, i.v. Q2D×5): 3.5 days | % ILS (Pan-02; 3 mg/kg total, i.v. Q3D×4): 110% | Day of death, Median (Pan-02; 3 mg/kg total, i.v. Q3D×4): 23.5 Days post-tumor inoculation | Day of death, Range (Pan-02; 3 mg/kg total, i.v. Q3D×4): 20-40 Days post-tumor inoculation | T - C (Pan-02; 3 mg/kg total, i.v. Q3D×4): 1.6 days | % ILS (Pan-02; 3 mg/kg total, i.v. Q4D×3): 183% | Day of death, Median (Pan-02; 3 mg/kg total, i.v. Q4D×3): 34.5 Days post-tumor inoculation | Day of death, Range (Pan-02; 3 mg/kg total, i.v. Q4D×3): 24-42 Days post-tumor inoculation | T - C (Pan-02; 3 mg/kg total, i.v. Q4D×3): 2.1 days | % ILS (Pan-02; 3 mg/kg total, i.v. Q7D×2): 170% | Day of death, Median (Pan-02; 3 mg/kg total, i.v. Q7D×2): 32.5 Days post-tumor inoculation | Day of death, Range (Pan-02; 3 mg/kg total, i.v. Q7D×2): 24-38 Days post-tumor inoculation | T - C (Pan-02; 3 mg/kg total, i.v. Q7D×2): 3.2 days | % ILS (Pan-02; 6 mg/kg total, i.v. Q3D×4): 170% | Day of death, Median (Pan-02; 6 mg/kg total, i.v. Q3D×4): 32.5 Days post-tumor inoculation | Day of death, Range (Pan-02; 6 mg/kg total, i.v. Q3D×4): 20-49 Days post-tumor inoculation | T - C (Pan-02; 6 mg/kg total, i.v. Q3D×4): 2.9 days | % ILS (Pan-02; 6 mg/kg total, i.v. Q4D×3): 170% | Day of death, Median (Pan-02; 6 mg/kg total, i.v. Q4D×3): 32.5 Days post-tumor inoculation | Day of death, Range (Pan-02; 6 mg/kg total, i.v. Q4D×3): 23-46 Days post-tumor inoculation | T - C (Pan-02; 6 mg/kg total, i.v. Q4D×3): 1.9 days | % ILS (Pan-02; 6 mg/kg total, i.v. Q7D×2): 163% | Day of death, Median (Pan-02; 6 mg/kg total, i.v. Q7D×2): 31.5 Days post-tumor inoculation | Day of death, Range (Pan-02; 6 mg/kg total, i.v. Q7D×2): 20-49 Days post-tumor inoculation | T - C (Pan-02; 6 mg/kg total, i.v. Q7D×2): 5.7 days | % ILS (Pan-02; 12 mg/kg total, i.v. Q3D×4): 207% | Day of death, Median (Pan-02; 12 mg/kg total, i.v. Q3D×4): 38.0 Days post-tumor inoculation | Day of death, Range (Pan-02; 12 mg/kg total, i.v. Q3D×4): 29-49 Days post-tumor inoculation | T - C (Pan-02; 12 mg/kg total, i.v. Q3D×4): 4.8 days | % ILS (Pan-02; 12 mg/kg total, i.v. Q4D×3): 197% | Day of death, Median (Pan-02; 12 mg/kg total, i.v. Q4D×3): 36.5 Days post-tumor inoculation | Day of death, Range (Pan-02; 12 mg/kg total, i.v. Q4D×3): 21-45 Days post-tumor inoculation | T - C (Pan-02; 12 mg/kg total, i.v. Q4D×3): 4.3 days | % ILS (Pan-02; 12 mg/kg total, i.v. Q7D×2): 153% | Day of death, Median (Pan-02; 12 mg/kg total, i.v. Q7D×2): 30.0 Days post-tumor inoculation | T - C (Pan-02; 12 mg/kg total, i.v. Q7D×2): 4.5 days | lethality (Pan-02; 24 mg/kg, Q7D×2, additional single study): not lethal | deaths, all doses pooled (Pan-02; Q2D×5): 10/15 | toxicity and therapeutic value (Pan-02; Q2D×5): quite toxic, and of limited therapeutic value | deaths, all doses pooled (Pan-02; Q3D×4): 5/30 | deaths, all doses pooled (Pan-02; Q4D×3): 1/30 | T-C, range (Pan-02; Q7D×2): 3.2 to 5.7 days | deaths, all doses pooled (Pan-02; Q7D×2): No deaths | mean decrease in rate of growth to 500 mm^3 (T-C) (Pan-02; Q7D×2, s.c. site, p<0.05): ~5 days | lethality, single i.v. dose (Meth A tumor [1]; 12.5 mg/kg single i.v. dose): 0/5 | % TGI (Meth A tumor [1]; 25 mg/kg single bolus): 35% | Cures (Meth A tumor [1]; 25 mg/kg single bolus): 0/3 | toxicity and efficacy (Meth A tumor [1]; IL-2 remaining in the body for longer periods): toxic at different doses without being very effective | toxicity of high single doses (Meth A tumor [1]; high single doses): toxic | % TGI (Meth A tumor [2]; [3]): 99.7% | Cures (Meth A tumor [2]; [3]): 7/10 | Deaths (Meth A tumor [2]; [3]): 0/10 | Δ Body Weight (Meth A tumor [2]; [3]): 1.05 | % TGI (Meth A tumor [2]; [4]): 99.6% | Cures (Meth A tumor [2]; [4]): 6/10 | Deaths (Meth A tumor [2]; [4]): 0/10 | Δ Body Weight (Meth A tumor [2]; [4]): 1.02
